# Source: PubChem BioAssay AID720646 (Broad Institute, 2013)
# The chains behind the UniProt entries cited, without tags or fusion partners. Where a name states a change or a piece, a line headed by the entry shows the natural chain unless it says otherwise.
# UniProt Q9HCT0: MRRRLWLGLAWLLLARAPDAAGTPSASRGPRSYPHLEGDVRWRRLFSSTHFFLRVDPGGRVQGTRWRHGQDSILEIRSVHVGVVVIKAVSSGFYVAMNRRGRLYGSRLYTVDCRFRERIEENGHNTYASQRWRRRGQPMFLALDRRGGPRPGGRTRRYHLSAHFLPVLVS
# Molecular target: Fibroblast growth factor 22 (Homo sapiens) (UniProt Q9HCT0)
# Assay: FGF22 melting temperature shift by ligands – biophysical, thermal shift, cherry-pick retest, FGF22 synaptogenesis inhibitor project, dose response (AID 720646)
# Conditions: recombinant FGF22 thermal shift, SYPRO orange fluorescence
smiles,measurement,value
Cc1ccc(S(=O)(=O)N(CCCN)CCCc2c(C)nc(N)[nH]c2=O)cc1,AC,35.2 µM
